Columns and labels:
UniProt Q9NR21 [1] = test: IC50 of competition for binding to immobilized-niraparib matrix; details: affinity matrix: immobilized niraparib (NHS-Sepharose); lysate: 1:1:1:1 mix of HEK293, K-562, placenta, HepG2 Princen
ALDH1B1 [2] = biological target: ALDH1B1 (UniProt P30837); test: as above; details: affinity matrix: immobilized niraparib (NHS-Sepharose); lysate: 1:1:1:1 mix of HEK293, K-562, placenta, HepG2 Princen
ALDH2 = biological target: T1, ALDH2 (UniProt P05091); test: as above; details: affinity matrix: immobilized niraparib (NHS-Sepharose); lysate: 1:1:1:1 mix of HEK293, K-562, placenta, HepG2 Princen
T1 sequence (whole entry): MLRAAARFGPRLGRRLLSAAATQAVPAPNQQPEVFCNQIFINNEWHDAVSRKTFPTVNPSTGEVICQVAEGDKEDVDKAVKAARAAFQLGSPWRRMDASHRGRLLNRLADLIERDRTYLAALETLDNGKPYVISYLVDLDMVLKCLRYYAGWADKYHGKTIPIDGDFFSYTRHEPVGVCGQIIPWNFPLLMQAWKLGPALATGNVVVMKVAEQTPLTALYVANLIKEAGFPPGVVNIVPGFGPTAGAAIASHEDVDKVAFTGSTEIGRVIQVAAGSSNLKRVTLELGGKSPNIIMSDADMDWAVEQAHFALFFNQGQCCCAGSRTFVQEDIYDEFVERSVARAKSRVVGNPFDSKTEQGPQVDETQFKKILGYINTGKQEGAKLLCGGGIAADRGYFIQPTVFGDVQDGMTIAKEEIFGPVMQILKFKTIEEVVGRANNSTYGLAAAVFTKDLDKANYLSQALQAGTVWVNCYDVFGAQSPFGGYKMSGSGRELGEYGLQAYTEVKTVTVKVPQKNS

TNKS [3] = biological target: TNKS (UniProt O95271); test: as above; details: affinity matrix: immobilized niraparib (NHS-Sepharose); lysate: 1:1:1:1 mix of HEK293, K-562, placenta, HepG2 Princen
UniProt O75521 = test: as above; details: affinity matrix: immobilized niraparib (NHS-Sepharose); lysate: 1:1:1:1 mix of HEK293, K-562, placenta, HepG2 Princen
MAPK11 = MAPK11 (UniProt Q15759); test: apparent dissociation constant pKd app (kinobead competition) (-log10(M)); higher = stronger binding
FGFR3 = FGFR3 (UniProt P22607); test: as above
TAOK2 = TAOK2 (UniProt Q9UL54); test: as above
LATS2 = LATS2 (UniProt Q9NRM7); test: as above
BMPR2 = BMPR2 (UniProt Q13873); test: as above
BMX = BMX (UniProt P51813); test: as above
RPS6KB1 = RPS6KB1 (UniProt P23443); test: as above
CDK6 = CDK6 (UniProt Q00534); test: as above
CLK2 = CLK2 (UniProt P49760); test: as above
MAP3K9 = MAP3K9 (UniProt P80192); test: as above
PARP16 = PARP16 (UniProt Q8N5Y8); test: IC50 of competition for binding to PARP-centric bead matrix; details: affinity matrix: PARP family-centric bead mix; lysate: MDA-MB-231
PDXK = PDXK (UniProt O00764); test: as above; details: affinity matrix: PARP family-centric bead mix; lysate: MDA-MB-231
UniProt Q9NR21 [4] = test: as above; details: affinity matrix: PARP family-centric bead mix; lysate: MDA-MB-231
TNKS [5] = biological target: TNKS (UniProt O95271); test: as above; details: affinity matrix: PARP family-centric bead mix; lysate: MDA-MB-231
PARP14 = PARP14 (UniProt Q460N5); test: as above; details: affinity matrix: PARP family-centric bead mix; lysate: MDA-MB-231
PARP10 = PARP10 (UniProt Q53GL7); test: as above; details: affinity matrix: PARP family-centric bead mix; lysate: MDA-MB-231
PARP4 = PARP4 (UniProt Q9UKK3); test: as above; details: affinity matrix: PARP family-centric bead mix; lysate: MDA-MB-231
PHKG2 = PHKG2 (UniProt P15735); test: apparent dissociation constant pKd app (kinobead competition) (-log10(M)); higher = stronger binding
CSNK2A2 = CSNK2A2 (UniProt P19784); test: as above
BRSK1 = BRSK1 (UniProt Q8TDC3); test: as above
HIPK3 = HIPK3 (UniProt Q9H422); test: as above
EPHB6 = EPHB6 (UniProt O15197); test: as above
DYRK2 = DYRK2 (UniProt Q92630); test: as above
UniProt O14965 = test: IC50 of competition for binding to PARP-centric bead matrix; details: affinity matrix: PARP family-centric bead mix; lysate: MDA-MB-231
ALDH1B1 [6] = biological target: ALDH1B1 (UniProt P30837); test: as above; details: affinity matrix: PARP family-centric bead mix; lysate: MDA-MB-231
UniProt Q8NI60 = test: as above; details: affinity matrix: PARP family-centric bead mix; lysate: MDA-MB-231
JAK1 = JAK1 (UniProt P23458); test: as above; details: affinity matrix: PARP family-centric bead mix; lysate: MDA-MB-231
UniProt Q9H2K2 = test: IC50 of competition for binding to immobilized-niraparib matrix; details: affinity matrix: immobilized niraparib (NHS-Sepharose); lysate: 1:1:1:1 mix of HEK293, K-562, placenta, HepG2 Princen

Row | IC50 (UniProt Q9NR21 [1]) | IC50 (ALDH1B1 [2]) | IC50 (ALDH2) | IC50 (TNKS [3]) | IC50 (UniProt O75521) | apparent dissociation constant pKd app (-log10) (MAPK11) | apparent dissociation constant pKd app (-log10) (FGFR3) | apparent dissociation constant pKd app (-log10) (TAOK2) | apparent dissociation constant pKd app (-log10) (LATS2) | apparent dissociation constant pKd app (-log10) (BMPR2) | apparent dissociation constant pKd app (-log10) (BMX) | apparent dissociation constant pKd app (-log10) (RPS6KB1) | apparent dissociation constant pKd app (-log10) (CDK6) | apparent dissociation constant pKd app (-log10) (CLK2) | apparent dissociation constant pKd app (-log10) (MAP3K9) | IC50 (PARP16) | IC50 (PDXK) | IC50 (UniProt Q9NR21 [4]) | IC50 (TNKS [5]) | IC50 (PARP14) | IC50 (PARP10) | IC50 (PARP4) | apparent dissociation constant pKd app (-log10) (PHKG2) | apparent dissociation constant pKd app (-log10) (CSNK2A2) | apparent dissociation constant pKd app (-log10) (BRSK1) | apparent dissociation constant pKd app (-log10) (HIPK3) | apparent dissociation constant pKd app (-log10) (EPHB6) | apparent dissociation constant pKd app (-log10) (DYRK2) | IC50 (UniProt O14965) | IC50 (ALDH1B1 [6]) | IC50 (UniProt Q8NI60) | IC50 (JAK1) | IC50 (UniProt Q9H2K2) | Compound
1 | > 30 µM | 1 µM | 6.18 µM | 8.5 µM | 3.6 µM | < 4.7 | < 4.6 | < 4.5 | < 4.5 | < 4.5 | < 4.7 | < 4.5 | < 4.5 | < 4.7 | < 4.8 | > 30 µM | 11 µM | > 30 µM | > 30 µM | > 30 µM | 10 µM | 0.384 µM |  |  |  |  |  |  |  |  |  |  |  | NC(=O)c1cccc2cn(-c3ccc([C@@H]4CCCNC4)cc3)nc12 [Niraparib]
2 |  |  |  |  |  | < 4.7 | < 4.6 |  |  | < 4.5 |  | < 4.5 |  | < 4.7 |  |  |  |  |  |  |  |  | < 4.5 | < 4.6 | < 4.7 | < 4.7 | < 4.6 | < 4.6 | > 30 µM | > 30 µM | > 30 µM | > 30 µM |  | O=C(c1cc(Cc2n[nH]c(=O)c3ccccc23)ccc1F)N1CCN(C(=O)C2CC2)CC1 [Olaparib]
3 |  |  |  |  |  |  |  | < 4.5 |  |  |  |  | < 4.5 |  |  |  |  |  |  |  |  |  |  | < 4.6 | < 4.7 | < 4.7 | < 4.6 | < 4.6 |  |  |  |  | 0.18 µM | Cn1ncnc1[C@H]1c2n[nH]c(=O)c3cc(F)cc(c23)N[C@@H]1c1ccc(F)cc1 [Talazoparib]

From the supplement of paper PMC11403291
